{
  "source": "ChEMBL document CHEMBL4376805",
  "about": "“Plasmodium Purine Metabolism and Its Inhibition by Nucleoside and Nucleotide Analogues” (J Med Chem, 2019)",
  "biological_target": "T1, Adenosine deaminase (Plasmodium falciparum, UniProt Q86GS5)",
  "T1 sequence (Q86GS5 whole entry)": "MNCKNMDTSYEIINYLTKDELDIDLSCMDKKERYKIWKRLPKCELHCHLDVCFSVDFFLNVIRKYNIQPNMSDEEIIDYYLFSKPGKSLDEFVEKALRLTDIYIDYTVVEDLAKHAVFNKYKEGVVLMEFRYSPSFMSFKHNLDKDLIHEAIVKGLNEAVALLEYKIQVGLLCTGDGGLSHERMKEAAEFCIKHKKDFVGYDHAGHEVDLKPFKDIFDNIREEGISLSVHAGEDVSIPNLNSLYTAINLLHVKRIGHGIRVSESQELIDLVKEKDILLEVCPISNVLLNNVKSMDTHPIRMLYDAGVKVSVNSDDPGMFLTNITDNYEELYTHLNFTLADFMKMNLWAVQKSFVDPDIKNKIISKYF",
  "experiment": "Inhibition of Plasmodium falciparum N-terminal thrombin cleavable His6-tagged ADA expressed in Escherichia coli BL21 assessed as equilibrium dissociation constant by measuring reduction in formation of inosine using adenosine as substrate",
  "data": [
    {"smiles": "OC[C@H]1O[C@@H](n2cnc3c2NC=NC[C@H]3O)C[C@@H]1O", "note": "[PENTOSTATIN]", "values": [
      {"measurement": "Ki", "value": 0.038, "unit": "nM"}
    ]}
  ]
}
